{"source": "patent US20040248211A1", "about": "“ICAM-related protein” (priority 1992, published 2004)", "molecules": {"B1": {"name": "ICR-8.1: anti-ICAM-R monoclonal antibody, IgG1, domain 1, ATCC HB 11232 (antibody, V domains shown)", "VH": "EIQLQQTGPELVKPGASVKISCKASGYSFTDCIILWVKQSHGKGLEWIGKINPYFGTTTYNLKFKGKATLTVDKSSSTAHMQLNSLTSEDSAVYYCARKEAYPDAMDYWGQGTSVTVSS", "VL": "DAVMTQTPLSLPVSLGDQASISCRSSQSLVHSNGDTYLHWYLQKPGQSPQLLIYKVSNRFSGVPDRFSGSGSGTDFTLKLSRVEAEDLGVYFCSQSTHVPYTFGGGTKLEIK"}}, "test_system": "SCID mice engrafted with human T cells", "test": "Graft-versus-host disease in Hu-PBMC/SCID chimeras"}
{"molecule": "B1", "values": [{"measurement": "human T-cell infiltration and splenic repopulation", "setting": "5 mg/mouse i.v. three times weekly", "value": "reduced human T-cell infiltration without preventing splenic repopulation"}, {"measurement": "animals developing lethal GVHD within fifty days after transplant", "setting": "5 mg/mouse i.v. three times weekly from day eleven, PBS group 7 of 11 (64%) died", "value": "0/12"}]}
